## AlphaSeq binding of Ab-95 light chain variants to a spike HR2 peptide

Source: Engelhart et al. 2022 (doi:10.1038/s41597-022-01779-4), MIT Lincoln Laboratory and A-Alpha Bio; data file from the FLAb repository.

Antigen: PDVDLGDISGINAS, a 14-residue peptide of the SARS-CoV-2 spike HR2 region.

Parent scFv Ab-95: VH joined to VL by a (GGGGS)3 linker. Changes lie in the light chain CDRs alone.
VH: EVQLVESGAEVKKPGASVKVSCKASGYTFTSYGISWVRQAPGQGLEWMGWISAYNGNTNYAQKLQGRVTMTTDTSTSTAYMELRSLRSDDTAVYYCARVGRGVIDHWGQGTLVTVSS
VL: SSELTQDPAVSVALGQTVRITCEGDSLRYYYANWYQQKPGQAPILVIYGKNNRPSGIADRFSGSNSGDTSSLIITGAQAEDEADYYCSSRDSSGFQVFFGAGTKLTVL

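Phage display of a naive human antibody library on the peptide gave the parent. Library AAYL52 holds single substitutions and randomly drawn double and triple substitutions in the CDRs. AlphaSeq pools MATa yeast showing the antibodies with MATalpha yeast showing the peptide. Binding brings cells together so that they mate, and sequencing counts the barcode pairs among the diploids. A regression on co-assayed BCL2-family reference pairs converts the normalised counts of each replicate to an apparent Kd. Each pool was mated in three replicate cultures.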

Variants are written as CDR1, CDR2 and CDR3 of the light chain (limits as in the source). Parent: EGDSLRYYYAN, GKNNRPS, SSRDSSGFQVF. Values are log10 of the apparent Kd in nM; lower means stronger binding. "n.d." marks a missing value. The strain was present, yet no cells mated with the target were sequenced in that replicate, which points to weak or no binding.

{"CDR-L1": "EGDSLRYYYAN", "CDR-L2": "YKNIRPS", "CDR-L3": "SSRDSSGFQFF", "replicates, log10 nM": "n.d. 4.09 n.d.", "control signals": "0/9"}
{"CDR-L1": "EGDHLRYWYAN", "CDR-L2": "GKNNRPS", "CDR-L3": "ESRDSSGFQVF", "replicates, log10 nM": "2.77 3.36 2.51", "control signals": "5/9 (3.70)"}
{"CDR-L1": "EGDSIRYYYAN", "CDR-L2": "GKNNRPS", "CDR-L3": "SSRDSPPFQVF", "replicates, log10 nM": "3.65 3.64 3.59", "control signals": "4/9 (3.99)"}
{"CDR-L1": "EGDSHRYYYAN", "CDR-L2": "GKNNGPS", "CDR-L3": "SSRDSSGFQRF", "replicates, log10 nM": "2.44 4.62 3.76", "control signals": "0/9"}
{"CDR-L1": "EGDSLRYVYQN", "CDR-L2": "GKNNRPS", "CDR-L3": "MSRDSSGFQVF", "replicates, log10 nM": "2.44 1.76 1.54", "control signals": "4/9 (3.47)"}
{"CDR-L1": "EGDSLRYYMAF", "CDR-L2": "GKNNRPS", "CDR-L3": "SSRDSSGFQVY", "replicates, log10 nM": "n.d. 5.35 n.d.", "control signals": "4/9 (3.97)"}
{"CDR-L1": "EKDSLRYYYAN", "CDR-L2": "GKNNRPS", "CDR-L3": "SSADSSGFEVF", "replicates, log10 nM": "5.84 4.38 4.15", "control signals": "3/9 (3.89)"}
{"CDR-L1": "EGDLLRYYYEN", "CDR-L2": "GKNNRPS", "CDR-L3": "SSRDSSGFQWF", "replicates, log10 nM": "n.d. 4.42 3.68", "control signals": "0/9"}
{"CDR-L1": "SGDSLRAYYAN", "CDR-L2": "MKNNRPS", "CDR-L3": "SSRDSSGFQVF", "replicates, log10 nM": "2.62 3.35 2.93", "control signals": "4/9 (3.59)"}
{"CDR-L1": "EGDSLRYYYAR", "CDR-L2": "GKNNRPS", "CDR-L3": "SSRTSSGFQVF", "replicates, log10 nM": "n.d. n.d. n.d.", "control signals": "1/9 (3.30)"}
{"CDR-L1": "EGDSLCYYYAN", "CDR-L2": "GKNNRPH", "CDR-L3": "SVRDSSGFQVF", "replicates, log10 nM": "3.24 3.40 2.46", "control signals": "1/9 (4.89)"}
{"CDR-L1": "EGDSLRYVYAN", "CDR-L2": "GKNNRPS", "CDR-L3": "SSRDSSVFQAF", "replicates, log10 nM": "1.98 2.18 2.22", "control signals": "1/9 (3.19)"}
{"CDR-L1": "EGDSLRYYIAN", "CDR-L2": "GKNDRPS", "CDR-L3": "SSRDSSGFQVF", "replicates, log10 nM": "3.22 5.49 n.d.", "control signals": "0/9"}
{"CDR-L1": "EGDHLRYYYAN", "CDR-L2": "GKNNRDS", "CDR-L3": "SSRDSSGLQVF", "replicates, log10 nM": "n.d. n.d. 3.62", "control signals": "2/9 (4.21)"}
{"CDR-L1": "EKDSLRYYYAN", "CDR-L2": "GKNNRPS", "CDR-L3": "SSRDSSRFQQF", "replicates, log10 nM": "n.d. n.d. 3.58", "control signals": "0/9"}
{"CDR-L1": "EGDSLAYYYAN", "CDR-L2": "GKNRRPS", "CDR-L3": "SSRDSSGFNVF", "replicates, log10 nM": "3.50 2.80 4.22", "control signals": "2/9 (3.14)"}
{"CDR-L1": "EGDSLRYYYAN", "CDR-L2": "GKNNRPS", "CDR-L3": "SERDGSGFQHF", "replicates, log10 nM": "2.69 2.82 2.47", "control signals": "2/9 (4.70)"}
{"CDR-L1": "ELDSLRYYYAN", "CDR-L2": "GKNNLPS", "CDR-L3": "SSRDSSGFQVF", "replicates, log10 nM": "2.72 2.37 3.22", "control signals": "2/9 (4.18)"}
{"CDR-L1": "EGDSLRFGYAN", "CDR-L2": "GKNNRPS", "CDR-L3": "PSRDSSGFQVF", "replicates, log10 nM": "1.97 1.85 1.05", "control signals": "4/9 (4.66)"}
{"CDR-L1": "VGDSLRYYYAN", "CDR-L2": "GKNCRPS", "CDR-L3": "SSHDSSGFQVF", "replicates, log10 nM": "2.90 3.33 n.d.", "control signals": "2/9 (3.91)"}
{"CDR-L1": "EGDSLKYYYAN", "CDR-L2": "GKNAPPS", "CDR-L3": "SSRDSSGFQVF", "replicates, log10 nM": "3.59 n.d. n.d.", "control signals": "4/9 (3.81)"}
{"CDR-L1": "EGDSARYYYAN", "CDR-L2": "GKNNRPS", "CDR-L3": "SSRDESGFQLF", "replicates, log10 nM": "n.d. 4.80 3.79", "control signals": "3/9 (3.97)"}
{"CDR-L1": "EGDSLRYYYAN", "CDR-L2": "GINNKPS", "CDR-L3": "SSRDSSGFQVF", "replicates, log10 nM": "3.08 3.58 2.62", "control signals": "1/9 (4.10)"}
{"CDR-L1": "EGDSLRYYYAN", "CDR-L2": "GKNNSPS", "CDR-L3": "SSRDSSGRQVY", "replicates, log10 nM": "2.71 2.43 2.15", "control signals": "4/9 (4.30)"}
{"CDR-L1": "EHDSLRYYYAN", "CDR-L2": "GKNVHPS", "CDR-L3": "SSRDSSGFQVF", "replicates, log10 nM": "3.61 3.37 3.99", "control signals": "4/9 (4.06)"}
{"CDR-L1": "EGESLRYYYAN", "CDR-L2": "GVNNRPS", "CDR-L3": "SYRDSSGFQVF", "replicates, log10 nM": "3.42 2.89 2.60", "control signals": "6/9 (3.86)"}
{"CDR-L1": "EGNSLRKYYAN", "CDR-L2": "GKNNRMS", "CDR-L3": "SSRDSSGFQVF", "replicates, log10 nM": "n.d. 3.47 2.93", "control signals": "1/9 (4.00)"}
{"CDR-L1": "EGDSLRYYYNN", "CDR-L2": "RKNNRPS", "CDR-L3": "SSRDSVGFQVF", "replicates, log10 nM": "4.04 n.d. n.d.", "control signals": "1/9 (4.24)"}
{"CDR-L1": "EGDSLRYYYAN", "CDR-L2": "IKNNGPS", "CDR-L3": "SSRDSSGFQNF", "replicates, log10 nM": "n.d. n.d. 3.51", "control signals": "3/9 (3.85)"}
{"CDR-L1": "WGDALRYYYAN", "CDR-L2": "GKNNRPS", "CDR-L3": "SSADSSGFQVF", "replicates, log10 nM": "4.16 4.06 n.d.", "control signals": "2/9 (3.78)"}
{"CDR-L1": "EGDSERYYYAN", "CDR-L2": "GKNNRRS", "CDR-L3": "SSRDSWGFQVF", "replicates, log10 nM": "n.d. n.d. n.d.", "control signals": "2/9 (3.82)"}

The closing 3 entries, repeated:

{"CDR-L1": "EGDSLRYYYAN", "CDR-L2": "IKNNGPS", "CDR-L3": "SSRDSSGFQNF", "replicates, log10 nM": "n.d. n.d. 3.51", "control signals": "3/9 (3.85)"}
{"CDR-L1": "WGDALRYYYAN", "CDR-L2": "GKNNRPS", "CDR-L3": "SSADSSGFQVF", "replicates, log10 nM": "4.16 4.06 n.d.", "control signals": "2/9 (3.78)"}
{"CDR-L1": "EGDSERYYYAN", "CDR-L2": "GKNNRRS", "CDR-L3": "SSRDSWGFQVF", "replicates, log10 nM": "n.d. n.d. n.d.", "control signals": "2/9 (3.82)"}

Empty control strains, which show no peptide, gave a signal in 28% of pairings with library AAYL52; the median was 3.91 and 95% of these signals were weaker than 2.90. No background was subtracted. The control count says in how many pairings with the empty strains this scFv gave a signal, with their mean in brackets. Parent in this assay: reference entry 2.31, copy in this library 2.25.